The chains behind the UniProt entries cited, without tags or fusion partners. Residues count along the entry.
UniProt P33261, whole entry: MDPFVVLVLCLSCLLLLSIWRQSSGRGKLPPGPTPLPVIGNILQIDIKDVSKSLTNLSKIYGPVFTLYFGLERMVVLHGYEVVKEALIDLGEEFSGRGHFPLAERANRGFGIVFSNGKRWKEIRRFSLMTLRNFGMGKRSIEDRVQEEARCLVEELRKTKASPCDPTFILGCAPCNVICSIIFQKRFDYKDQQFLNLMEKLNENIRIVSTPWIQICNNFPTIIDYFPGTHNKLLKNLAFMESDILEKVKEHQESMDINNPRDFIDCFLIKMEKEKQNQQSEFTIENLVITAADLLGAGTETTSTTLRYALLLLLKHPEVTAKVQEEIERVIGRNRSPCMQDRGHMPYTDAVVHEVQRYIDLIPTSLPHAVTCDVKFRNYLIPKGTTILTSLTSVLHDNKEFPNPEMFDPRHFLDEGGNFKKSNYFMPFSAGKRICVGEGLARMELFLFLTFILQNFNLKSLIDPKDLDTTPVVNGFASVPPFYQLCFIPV
UniProt P08684, whole entry: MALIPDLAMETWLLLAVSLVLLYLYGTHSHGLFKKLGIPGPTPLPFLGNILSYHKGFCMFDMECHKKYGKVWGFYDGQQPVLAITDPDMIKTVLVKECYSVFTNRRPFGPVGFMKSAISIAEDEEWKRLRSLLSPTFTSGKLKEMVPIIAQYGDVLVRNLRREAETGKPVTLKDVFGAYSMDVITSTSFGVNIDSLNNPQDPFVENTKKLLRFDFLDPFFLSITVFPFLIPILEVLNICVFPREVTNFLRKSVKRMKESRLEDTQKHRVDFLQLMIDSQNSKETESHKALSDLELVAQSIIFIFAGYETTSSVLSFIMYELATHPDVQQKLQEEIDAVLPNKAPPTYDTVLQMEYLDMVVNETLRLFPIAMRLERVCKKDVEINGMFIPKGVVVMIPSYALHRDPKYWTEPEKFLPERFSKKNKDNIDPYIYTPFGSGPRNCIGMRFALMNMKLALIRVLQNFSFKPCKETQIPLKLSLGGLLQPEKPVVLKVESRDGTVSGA
UniProt P35968, 20-1356 limits assumed: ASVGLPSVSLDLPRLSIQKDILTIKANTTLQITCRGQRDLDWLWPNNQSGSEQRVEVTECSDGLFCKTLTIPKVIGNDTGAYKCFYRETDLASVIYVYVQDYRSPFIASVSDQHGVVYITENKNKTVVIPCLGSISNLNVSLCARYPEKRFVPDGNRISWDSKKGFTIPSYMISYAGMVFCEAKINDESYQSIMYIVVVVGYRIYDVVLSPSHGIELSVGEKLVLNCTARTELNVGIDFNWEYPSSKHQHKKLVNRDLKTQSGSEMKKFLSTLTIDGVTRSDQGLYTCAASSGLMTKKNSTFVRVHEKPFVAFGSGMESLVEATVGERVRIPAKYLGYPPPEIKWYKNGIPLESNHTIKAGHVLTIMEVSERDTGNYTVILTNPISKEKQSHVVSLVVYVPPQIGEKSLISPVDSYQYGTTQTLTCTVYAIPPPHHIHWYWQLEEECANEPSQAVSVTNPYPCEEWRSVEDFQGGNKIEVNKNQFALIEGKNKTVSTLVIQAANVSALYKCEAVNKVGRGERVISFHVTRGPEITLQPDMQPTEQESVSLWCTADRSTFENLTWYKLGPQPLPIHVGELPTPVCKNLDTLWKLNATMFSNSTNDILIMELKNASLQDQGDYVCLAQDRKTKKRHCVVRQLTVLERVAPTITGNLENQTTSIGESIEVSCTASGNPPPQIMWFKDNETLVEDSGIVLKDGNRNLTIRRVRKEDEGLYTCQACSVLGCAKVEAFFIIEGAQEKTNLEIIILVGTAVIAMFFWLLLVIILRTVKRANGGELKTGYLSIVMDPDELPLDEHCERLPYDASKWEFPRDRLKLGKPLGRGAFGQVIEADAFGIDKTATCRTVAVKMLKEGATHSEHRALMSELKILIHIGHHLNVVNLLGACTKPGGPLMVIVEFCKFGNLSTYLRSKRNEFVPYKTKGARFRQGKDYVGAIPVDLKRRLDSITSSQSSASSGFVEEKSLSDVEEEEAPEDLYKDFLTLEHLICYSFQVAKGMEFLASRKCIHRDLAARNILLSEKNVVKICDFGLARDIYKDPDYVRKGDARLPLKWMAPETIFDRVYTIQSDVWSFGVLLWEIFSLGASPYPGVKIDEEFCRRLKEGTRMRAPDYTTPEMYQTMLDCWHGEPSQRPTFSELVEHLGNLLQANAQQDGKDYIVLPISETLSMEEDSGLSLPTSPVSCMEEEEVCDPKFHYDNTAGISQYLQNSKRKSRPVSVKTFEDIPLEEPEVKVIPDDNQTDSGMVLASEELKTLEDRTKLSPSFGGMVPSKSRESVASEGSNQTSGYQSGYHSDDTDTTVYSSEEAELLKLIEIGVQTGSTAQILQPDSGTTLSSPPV
UniProt P11712, whole entry: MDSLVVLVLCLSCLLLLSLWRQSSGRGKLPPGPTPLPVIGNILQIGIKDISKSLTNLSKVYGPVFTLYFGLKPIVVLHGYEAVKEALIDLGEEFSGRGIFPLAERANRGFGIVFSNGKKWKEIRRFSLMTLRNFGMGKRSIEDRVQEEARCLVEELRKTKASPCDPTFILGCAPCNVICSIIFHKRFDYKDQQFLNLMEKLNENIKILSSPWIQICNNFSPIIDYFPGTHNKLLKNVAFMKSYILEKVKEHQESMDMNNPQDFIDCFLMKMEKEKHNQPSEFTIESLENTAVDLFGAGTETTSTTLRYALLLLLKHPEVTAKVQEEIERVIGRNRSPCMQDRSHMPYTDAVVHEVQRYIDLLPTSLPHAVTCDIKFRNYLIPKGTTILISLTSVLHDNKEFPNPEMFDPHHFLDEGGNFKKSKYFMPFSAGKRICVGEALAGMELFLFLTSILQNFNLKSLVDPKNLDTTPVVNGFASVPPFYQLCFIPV
UniProt P05177, whole entry: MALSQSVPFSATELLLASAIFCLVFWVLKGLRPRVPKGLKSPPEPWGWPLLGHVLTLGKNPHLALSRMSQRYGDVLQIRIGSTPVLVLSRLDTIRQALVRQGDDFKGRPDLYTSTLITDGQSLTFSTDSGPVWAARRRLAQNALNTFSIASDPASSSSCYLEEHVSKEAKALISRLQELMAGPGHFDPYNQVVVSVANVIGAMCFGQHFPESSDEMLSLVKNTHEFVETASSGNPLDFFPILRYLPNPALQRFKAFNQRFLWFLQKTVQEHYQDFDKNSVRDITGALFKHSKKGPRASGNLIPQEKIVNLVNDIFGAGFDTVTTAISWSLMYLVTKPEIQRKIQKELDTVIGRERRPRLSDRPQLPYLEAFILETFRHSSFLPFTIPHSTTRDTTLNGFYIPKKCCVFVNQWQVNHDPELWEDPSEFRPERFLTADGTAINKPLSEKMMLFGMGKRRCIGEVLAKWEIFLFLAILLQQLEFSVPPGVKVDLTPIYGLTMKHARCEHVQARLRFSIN

In patent US20040254185A1:

Columns and labels:
[1] = molecular target: human Cytochrome P 450 2C19 (Homo sapiens, UniProt P33261); experiment: Cytochrome P450 inhibition (Crespi et al.), isoenzyme 2C19; details: read-out: Inhibition of the Cytochrome P450 Isoenzymes (IC50) 2C19; baculovirus/insect cell-expressed human isoenzyme 2C19
Description: (§1) The Cytochrome P450 inhibition was performed according to the publication of Crespi et al. (Anal. Biochem., 248, 188-190 (1997)) with use of baculovirus/insect cell-expressed, human Cytochrome P 450 isoenzymes (1A2, 2C9, 2C19, 3A4).

[2] = molecular target: human Cytochrome P 450 3A4 (Homo sapiens, UniProt P08684); experiment: Cytochrome P450 inhibition (Crespi et al.), isoenzyme 3A4; details: read-out: Inhibition of the Cytochrome P450 Isoenzymes (IC50) 3A4; baculovirus/insect cell-expressed human isoenzyme 3A4
Description: as §1

VEGFR II (KDR) = VEGFR II (KDR) (Homo sapiens, UniProt P35968); experiment: Inhibition of the KDR kinase activity (33P-ATP, poly-(Glu4Tyr) substrate); details: read-out: kinase inhibition IC50 VEGFR II (KDR); phosphate incorporation, 10 minutes at room temperature
Description: Stock solution A: 3 mmol of ATP in water, pH 7.0 (−70° C.)
Stock solution B: g-33 P-ATP 1 mCi/100 μl
Stock solution C: poly-(Glu4 Tyr) 10 mg/ml in water
Substrate solvent: 10 mmol of DTT, 10 mmol of manganese chloride, 100 mmol of magnesium chloride
Enzyme solution: 120 mmol of tris/HCl, pH 7.5, 10 μM of sodium vanadium oxide
In a microtiter plate (without protein binding) that tapers to a point, 10 μl of substrate mix (10 μl of volume of ATP stock solution A+25 μCi of g-33P-ATP (about 2.5 μl of stock solution B)+30 μl of poly-(Glu4Tyr) stock solution C+1.21 ml of substrate solvent), 10 μl of inhibitor solution (substances corresponding to the dilutions, 3% DMSO in substrate solvent as a control) and 10 μl of enzyme solution (11.25 μg of enzyme stock solution (KDR or FLT-1 kinase) are added at 4° C. in 1.25 ml of enzyme solution (dilute). It is thoroughly mixed and incubated for 10 minutes at room temperature. Then, 10 μl of stop solution (250 mmol of EDTA, pH 7.0) is added, mixed, and 10 μl of the solution is transferred to a P 81 phosphocellulose filter. Then, it is washed several times in 0.1 M phosphoric acid. The filter paper is dried, coated with Meltilex and measured in a microbeta counter. […]

[3] = molecular target: human Cytochrome P 450 2C9 (Homo sapiens, UniProt P11712); experiment: Cytochrome P450 inhibition (Crespi et al.), isoenzyme 2C9; details: read-out: Inhibition of the Cytochrome P450 Isoenzymes (IC50) 2C9; baculovirus/insect cell-expressed human isoenzyme 2C9
Description: as §1

[4] = molecular target: human Cytochrome P 450 1A2 (Homo sapiens, UniProt P05177); experiment: Cytochrome P450 inhibition (Crespi et al.), isoenzyme 1A2; details: read-out: Inhibition of the Cytochrome P450 Isoenzymes (IC50) 1A2; baculovirus/insect cell-expressed human isoenzyme 1A2
Description: as §1

O=C(NCCCO)c1cc(CNc2ccccc2C(=O)Nc2cc3ccccc3cn2)ccn1
IC50 [1]: 4.9 µM | IC50 [2]: 25 µM | IC50 (VEGFR II (KDR)): 0.04 µM | IC50 [3]: 2.9 µM | IC50 [4]: 30 µM
